The values below come from US20130252930A1 (BIOMARIN PHARMACEUTICAL INC., priority 2010, published 2013).

The chains behind the UniProt entries cited, without tags or fusion partners.
UniProt P08686, whole entry: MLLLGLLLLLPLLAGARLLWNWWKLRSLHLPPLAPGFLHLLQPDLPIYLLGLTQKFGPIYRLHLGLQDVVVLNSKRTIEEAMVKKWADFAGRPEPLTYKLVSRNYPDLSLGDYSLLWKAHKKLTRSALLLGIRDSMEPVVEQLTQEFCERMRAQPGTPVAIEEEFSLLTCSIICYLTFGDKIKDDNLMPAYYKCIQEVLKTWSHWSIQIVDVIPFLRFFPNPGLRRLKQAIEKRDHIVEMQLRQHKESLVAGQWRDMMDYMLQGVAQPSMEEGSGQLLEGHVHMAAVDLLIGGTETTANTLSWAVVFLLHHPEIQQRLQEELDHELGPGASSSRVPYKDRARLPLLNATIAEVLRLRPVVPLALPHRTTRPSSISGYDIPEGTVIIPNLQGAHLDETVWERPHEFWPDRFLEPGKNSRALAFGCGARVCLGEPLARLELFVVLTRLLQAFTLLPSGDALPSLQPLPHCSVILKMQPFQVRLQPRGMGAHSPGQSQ
UniProt P05093, whole entry: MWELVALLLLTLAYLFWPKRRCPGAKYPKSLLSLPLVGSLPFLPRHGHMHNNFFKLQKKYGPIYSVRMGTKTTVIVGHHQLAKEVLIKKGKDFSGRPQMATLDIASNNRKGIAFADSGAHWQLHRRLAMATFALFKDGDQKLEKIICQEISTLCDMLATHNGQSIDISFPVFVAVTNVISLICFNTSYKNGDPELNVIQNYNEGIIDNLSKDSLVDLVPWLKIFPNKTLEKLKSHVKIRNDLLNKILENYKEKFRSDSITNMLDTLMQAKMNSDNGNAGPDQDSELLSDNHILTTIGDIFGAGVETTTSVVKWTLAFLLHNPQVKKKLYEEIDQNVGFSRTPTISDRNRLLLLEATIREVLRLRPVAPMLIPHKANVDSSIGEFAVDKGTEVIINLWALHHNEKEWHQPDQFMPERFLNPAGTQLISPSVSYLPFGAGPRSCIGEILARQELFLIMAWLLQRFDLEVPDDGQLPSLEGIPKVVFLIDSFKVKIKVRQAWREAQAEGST

Data set [1] concerns rat Cyp11B enzyme (rat adrenal mitochondria). In words: CYP11B enzymatic assay (% inhibition at 100 nM) (Biological Example 9). The following applies: 100 nM compound, cortisol by ELISA.
The nature of data set [2]: Rat liver microsome stability assay (Biological Example 8a). The following applies: rat liver microsomes, 1 μM compound, NADPH.
A short description of data set [3]: Human liver microsome stability assay (Biological Example 8b). The following applies: human liver microsomes, 1 μM compound, NADPH. In general terms: Microsomes from liver hold many membrane-bound enzymes, among them those of drug oxidation.
The target of data set [4] is Cyp21 enzyme (Human HEK 293-Cyp21 stable transfected cells) (Homo sapiens, UniProt P08686). In words: CYP21-HEK293 enzymatic assay (% inhibition at 100 nM) (Biological Example 10). The following applies: 100 nM compound, HEK 293-Cyp21 cells.
The target in data set [5] is CYP17 (human testicular microsome) (Homo sapiens, UniProt P05093). As to the kind of experiment: CYP17 enzymatic assay (% inhibition at 10 nM), version 1 (Biological Example 5). The note with it: 10 nM compound, DHEA by ELISA. The data set is classed as biochemical. For orientation: An ELISA detects its analyte on a solid surface through an enzyme-linked reagent.

Structures are written as SMILES.

As for `C[C@]12CC[C@H]3[C@@H](CCC4=CC(=O)CC[C@@]43C)C1=CC=C2c1cccnc1`, the “Biological Example No. 9: CYP11B percent inhibition at 100 nM” value in data set [1] was “na (“na” means the compound was not active under the conditions tested)”. The “Biological Example No. 8a: rat liver microsome half life” value in data set [2] is “J (J means the compound had a half life of greater than or equal to 1 minute but less than 10 minutes)”. Moreover, in data set [3], the “Biological Example No. 8b: human liver microsome half life” value is “R (R means the compound had a half life of greater than or equal to 1 minute but less than 50 minutes)”. For the same molecule, in data set [4], the “Biological Example No. 10: CYP21-HEK293 percent inhibition at 100 nM” value is “W (W means the compound had a percent inhibition of greater than or equal to 30%)”. The “Biological Example No. 5: CYP17 percent inhibition at 10 nM (version 1)” value in data set [5] is “C (C means the compound had a percent inhibition of greater than or equal to 80% when tested at 10 nM)”.
